## Yeast mating assay 1: variants of the scFv Ab-14

The target is the same throughout: PDVDLGDISGINAS, from the HR2 region of SARS-CoV-2 spike.

Parent: Ab-14, a human scFv built as VH, a 15-residue (Gly4Ser)3 linker, VL. Only the CDRs of the light chain vary.
VH: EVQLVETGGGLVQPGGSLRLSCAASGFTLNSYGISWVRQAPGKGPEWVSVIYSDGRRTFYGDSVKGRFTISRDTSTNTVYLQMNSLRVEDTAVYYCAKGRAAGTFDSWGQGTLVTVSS
VL: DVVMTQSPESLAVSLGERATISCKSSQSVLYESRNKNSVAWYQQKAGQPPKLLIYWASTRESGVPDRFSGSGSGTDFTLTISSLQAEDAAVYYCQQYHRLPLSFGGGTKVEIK

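The starting antibody came from a phage panning campaign against this peptide. The library (AAYL50) carries one to three amino acid substitutions per variant, with no insertions or deletions. The assay is AlphaSeq: two haploid yeast populations carry antibody and antigen on their surface. After mating in shaken culture at 30 °C for 16 h, diploids were selected and their barcode pairs sequenced. A regression on co-assayed BCL2-family reference pairs converts the normalised counts of each replicate to an apparent Kd. Each pool was mated in three replicate cultures.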

The parent's light chain CDRs are KSSQSVLYESRNKNSVA, WASTRES, QQYHRLPLS; each variant's own CDRs replace them letter for letter. Affinities are written as log10 Kd with Kd in nM; a lower number is a better binder. Averages over replicates are reported, and they cover detected replicates only. Where no diploid with the target was found in that replicate, the entry reads "ND": below detection, most likely a poor binder, though not proof of it. Nonspecific signal, from three strains lacking the peptide, appeared in 18% of pairings of library AAYL50, centred on 4.19 (5% of these signals below 2.99); values are not corrected for it. Also given: how often the same scFv was detected with the empty control strains, with their mean in brackets. For reference, the parent read 0.65 as the reference entry and 1.68 as a member of this library.

CDR-L1,CDR-L2,CDR-L3,log10 Kd (nM) by replicate,"mean, log10 nM",empty controls
FSSQSVLYESRNKNSVA,WISTRRS,QQYHRLPLS,ND ND ND,ND,1/9 (2.61)
KSSQSVLYESRNKNSVG,WASTRES,QQYHRLPRS,ND ND ND,ND,0/9
KSSQSVLFESRNKNSVR,WASTRES,QQPHRLPLS,ND ND ND,ND,1/9 (3.98)
KSFQSVLYESRNKNTVA,QASTRES,QQYHRLPLS,2.32 2.72 1.17,2.07,0/9
KSSQSVLYESRNKNHVA,WASTRES,QQYGRLNLS,1.89 1.60 2.01,1.83,0/9
KFSQSVLYESRCKNSVA,WASTLES,QQYHRLPLS,1.20 1.13 1.15,1.16,3/9 (4.24)
KSSQSVLYESRNKNSNA,WAERRES,QQYHRLPLS,ND ND 4.36,4.36,1/9 (3.33)
KSSQSVLYESRNKNSVA,WESTRES,QQAWRLPLS,ND 5.23 3.97,4.60,5/9 (4.09)
KSSASVLYESRNKNSVA,WASTRES,QQYHRLPLL,1.61 1.74 2.19,1.85,2/9 (3.44)
KHPQSVLYESRNKNSVA,WASERES,QQYHRLPLS,0.07 0.42 0.25,0.25,1/9 (1.90)
KDSQSVLYISRNSNSVA,WASTRES,QQYHRLPLS,2.94 ND ND,2.94,0/9
KSSQSVLYVSRNKNSVA,WASTKES,QQYHRLPLS,3.60 ND 4.27,3.94,0/9
KSSQSVLYESRNKNNVA,WASTREF,QQYHRLWLS,ND ND ND,ND,0/9
KSLQSVLYESRNKNSVA,WASGRES,QQYHRLPLS,ND ND ND,ND,0/9
KSSQSVLYESRNKNSVA,WASTRES,QQYMRLPAG,0.64 0.85 0.78,0.75,1/9 (3.33)
KSSQSVLYDSKNKNSRA,WASTRES,QQYHRLPLS,3.85 ND ND,3.85,2/9 (4.08)
KSSQSVLYESRNKNSVA,WASTRES,QIYHRLPLS,1.61 1.62 1.70,1.65,5/9 (4.71)
KSSQSVLEESRNKNSVA,KASYRES,QQYHRLPLS,ND 4.16 ND,4.16,0/9
KSSQAVLYESKNKNSVA,WASTIES,QQYHRLPLS,ND ND ND,ND,1/9 (3.20)
KSSQQVLYESRNKNSVA,RAITRES,QQYHRLPLS,0.90 1.10 0.99,1.00,1/9 (3.63)
WSSQSVLYESRNKNSVA,WASTRES,QSDHRLPLS,ND ND ND,ND,3/9 (4.61)
KSGQSVLYEKRNKNSVA,WASTRES,CQYHRLPLS,ND ND ND,ND,1/9 (3.15)
KLSQYVLYESRNKNSVA,WASTRLS,QQYHRLPLS,0.56 0.82 0.82,0.73,1/9 (3.90)
KCSQSVLYESRNKNSVA,WASYRES,QQYHRLPLH,0.76 1.03 0.83,0.87,1/9 (5.26)
KSSQSVLYYSRNSNSVA,WASTRES,QQYHWLPLS,3.43 ND 3.51,3.47,0/9
KSSQSVLEESRNKNSVA,WASTRFS,QQYHRIPLS,ND ND 2.82,2.82,0/9
KSSQSVLYDSRNYNSVA,WASTRES,QQCHRLPLS,0.30 0.56 0.33,0.40,2/9 (4.92)
ASSQSVLYESRNKNSVA,WAPTRES,QQYHRLPLS,ND ND ND,ND,0/9
KSSQSVLVESRNKNSVA,WASTTES,GQYHRLPLS,3.33 2.80 2.53,2.89,2/9 (3.07)
KSSQCVLYESRNKNSVA,WASNDES,QQYHRLPLS,2.09 ND ND,2.09,1/9 (2.83)
KSSQSVLYASRNKNSVA,WAETRES,QQYHRLPLS,1.05 1.21 1.22,1.16,2/9 (5.01)
KSSQSVLYESRNKNSVA,WAMTRES,QEYHRKPLS,ND ND ND,ND,1/9 (2.24)
KGSQSVLYDSRNRNSVA,WASTRES,QQYHRLPLS,1.81 1.87 1.69,1.79,3/9 (3.99)
KSSQSVLYESRNKNSVA,WAATRQS,QAYHRLPLS,4.02 3.67 4.31,4.00,2/9 (5.03)
KSSQSVLYELRNKNSVA,WASTRES,QQYHRSPLS,ND 3.84 ND,3.84,2/9 (3.93)
KSLQSVLYESRNKNSVA,WVSTREQ,QQYHRLPLS,ND ND ND,ND,0/9
KSSQSVLYESRNKNSNA,WASTRES,QQYHMLSLS,ND ND 5.07,5.07,3/9 (4.95)
KSSQKVLYESRNKNSVA,WASVRES,QQYHSLPLS,1.02 1.05 1.11,1.06,2/9 (3.09)
VSSQSVLYESRNKNSVA,WASTRES,QQYMFLPLS,3.17 ND ND,3.17,2/9 (4.35)
KRSMSVLYESRNKNSVA,WISTRES,QQYHRLPLS,ND ND ND,ND,0/9
HSSQSVLYESRNKNSVA,WASTRES,QQYSRIPLS,1.19 1.38 1.40,1.32,5/9 (4.43)
KSSQSVLYESRNKNSVA,FASTREG,QQYHELPLS,2.80 2.75 3.24,2.93,1/9 (4.49)
KSSQSVLYESRNKSSEA,WASTRES,QQYHRLPLS,ND 4.27 ND,4.27,1/9 (4.30)

Top 5 of the variants detected in all replicates, tightest first:

CDR-L1,CDR-L2,CDR-L3,log10 Kd (nM) by replicate,"mean, log10 nM",empty controls
KHPQSVLYESRNKNSVA,WASERES,QQYHRLPLS,0.07 0.42 0.25,0.25,1/9 (1.90)
KSSQSVLYDSRNYNSVA,WASTRES,QQCHRLPLS,0.30 0.56 0.33,0.40,2/9 (4.92)
KLSQYVLYESRNKNSVA,WASTRLS,QQYHRLPLS,0.56 0.82 0.82,0.73,1/9 (3.90)
KSSQSVLYESRNKNSVA,WASTRES,QQYMRLPAG,0.64 0.85 0.78,0.75,1/9 (3.33)
KCSQSVLYESRNKNSVA,WASYRES,QQYHRLPLH,0.76 1.03 0.83,0.87,1/9 (5.26)

The measurements come from Engelhart et al. 2022 (doi:10.1038/s41597-022-01779-4) through the FLAb antibody collection.